Assay [1] concerns the target T1, Camk2α (ThermoFisher Scientific, PR4586C) (UniProt Q9UQM7 1-478). The assay is described as follows: BLI; Camk2α (3.5 µg/mL) loaded on anti-His (His2) biosensor; Fbp2 50-400 nM; 25 °C; PBS with 2 mM Mg2+ and 10 µM Ca2+; global 1:1 fit and steady-state analysis. To be noted: both partners purified. In general terms: In BLI a coated tip is dipped into the sample, and binding shifts an interference pattern.

Chains of the proteins cited; added tags and fusions are not shown.
UniProt Q9UQM7, whole entry: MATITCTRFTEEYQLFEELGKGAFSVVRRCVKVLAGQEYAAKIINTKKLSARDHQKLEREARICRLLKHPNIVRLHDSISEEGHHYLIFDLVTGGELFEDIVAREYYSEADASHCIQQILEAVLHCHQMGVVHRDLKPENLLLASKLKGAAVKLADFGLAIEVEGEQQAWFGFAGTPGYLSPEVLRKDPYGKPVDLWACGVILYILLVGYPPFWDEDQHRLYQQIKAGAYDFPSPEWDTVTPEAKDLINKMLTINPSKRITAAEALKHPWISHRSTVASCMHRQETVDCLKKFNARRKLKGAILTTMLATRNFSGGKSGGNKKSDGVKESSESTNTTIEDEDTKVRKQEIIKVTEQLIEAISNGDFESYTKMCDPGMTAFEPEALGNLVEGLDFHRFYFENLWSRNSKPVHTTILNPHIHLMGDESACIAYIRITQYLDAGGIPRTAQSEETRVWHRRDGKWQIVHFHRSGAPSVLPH

The target of assay [2] is T1, Camk2α (ThermoFisher Scientific, …). The assay can be described thus: MST; Camk2α (50 nM) labelled with RED tris-NTA; Fbp2 titrated 0.397 nM-13 µM; PBS with 0.05% Tween; 23 °C. The settings on record: both partners purified.

B1: recombinant human fructose 1,6-bisphosphatase 2 (Fbp2) (enzyme, UniProt O00757 1-339, looked up)
chain: MTDRSPFETDMLTLTRYVMEKGRQAKGTGELTQLLNSMLTAIKAISSAVRKAGLAHLYGIAGSVNVTGDEVKKLDVLSNSLVINMVQSSYSTCVLVSEENKDAIITAKEKRGKYVVCFDPLDGSSNIDCLASIGTIFAIYRKTSEDEPSEKDALQCGRNIVAAGYALYGSATLVALSTGQGVDLFMLDPALGEFVLVEKDVKIKKKGKIYSLNEGYAKYFDAATTEYVQKKKFPEDGSAPYGARYVGSMVADVHRTLVYGGIFLYPANQKSPKGKLRLLYECNPVAYIIEQAGGLATTGTQPVLDVKPEAIHQRVPLILGSPEDVQEYLTCVQKNQAGS
notes: fructose 1,6-bisphosphatase 2 (Fbp2), human, recombinant; The oligomeric state in these assays is not measured here; dimers and tetramers are cited from earlier work; source: recombinant, purified as described by [12]
For the molecule B1, the results for the Kd in assay [1] and in assay [2] were 100 nM and 1200 nM, respectively.

The values above are taken from paper PMC7349836, “Fructose 1,6-Bisphosphatase 2 Plays a Crucial Role in the Induction and Maintenance of Long-Term Potentiation” (Cells, 2020).
